What was measured:
[1] = biological target: T1, Tim3 (on Tim3-CHO cells) (UniProt Q8TDQ0 22-301, limits assumed); assay: flow cytometry on Tim3-CHO cells
T1 construct: whole, on cells
T1 sequence (looked up): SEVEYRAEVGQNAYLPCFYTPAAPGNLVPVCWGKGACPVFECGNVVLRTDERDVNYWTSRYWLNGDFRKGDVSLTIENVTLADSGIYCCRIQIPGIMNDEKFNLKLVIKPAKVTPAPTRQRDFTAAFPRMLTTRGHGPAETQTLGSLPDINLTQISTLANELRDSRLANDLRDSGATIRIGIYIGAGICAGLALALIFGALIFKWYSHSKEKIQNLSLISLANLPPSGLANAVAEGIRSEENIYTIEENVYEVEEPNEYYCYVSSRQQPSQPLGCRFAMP
Description: (§1) Cells (VISTA-CHO cells, Tim3-CHO cells or Lag3-CHO cells) in logarithmic phase were collected and centrifuged at 1500 rpm for 5 min, and the supernatant was removed. The cells were resuspended in 1×PBS and centrifuged at 1500 rpm for 5 min, and the supernatant was removed, and then the procedure was repeated once. […]

[2] = biological target: T2, Lag3 (on Lag3-CHO cells) (UniProt P18627 23-525, limits assumed); assay: flow cytometry on Lag3-CHO cells
T2 construct: whole, on cells
T2 sequence (looked up): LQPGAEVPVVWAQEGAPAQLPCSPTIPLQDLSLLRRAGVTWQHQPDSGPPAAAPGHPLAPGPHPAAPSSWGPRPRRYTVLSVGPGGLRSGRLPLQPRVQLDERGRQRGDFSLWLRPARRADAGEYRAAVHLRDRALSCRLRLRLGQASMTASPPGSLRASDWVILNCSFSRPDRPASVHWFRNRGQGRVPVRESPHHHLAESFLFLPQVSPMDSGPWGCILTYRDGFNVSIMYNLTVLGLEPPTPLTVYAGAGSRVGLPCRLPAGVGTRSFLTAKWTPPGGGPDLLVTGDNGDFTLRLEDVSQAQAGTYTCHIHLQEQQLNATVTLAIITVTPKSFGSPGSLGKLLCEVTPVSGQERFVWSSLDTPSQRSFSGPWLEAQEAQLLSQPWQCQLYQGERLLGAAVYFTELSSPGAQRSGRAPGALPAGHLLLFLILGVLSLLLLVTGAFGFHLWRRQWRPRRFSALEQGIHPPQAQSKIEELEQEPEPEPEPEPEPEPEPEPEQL
Description: as §1

[3] = biological target: T3, VISTA (on VISTA-CHO cells) (UniProt Q9H7M9 33-311, limits assumed); assay: flow cytometry on VISTA-CHO cells
T3 construct: whole, on cells
T3 sequence (looked up): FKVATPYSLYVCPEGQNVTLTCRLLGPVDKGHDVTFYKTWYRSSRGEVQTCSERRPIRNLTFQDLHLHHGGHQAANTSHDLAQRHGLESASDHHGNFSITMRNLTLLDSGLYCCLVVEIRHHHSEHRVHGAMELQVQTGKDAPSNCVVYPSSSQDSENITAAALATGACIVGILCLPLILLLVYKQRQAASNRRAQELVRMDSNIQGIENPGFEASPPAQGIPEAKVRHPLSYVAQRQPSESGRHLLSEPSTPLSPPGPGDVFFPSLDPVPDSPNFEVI
Description: as §1

- binding result [1]: no binding (tested: 100 nM)
- binding result [2]: no binding (tested: 100 nM)
- binding result [3]: no binding (tested: 100 nM)
B1: antibody V4 (antibody, human IgG1, kappa, V domains shown)
VH: EVQLVESGGGLVQPGGSLRLSCAASGYTFTDYDINWVRQAPGKGLEWVGWIFPGDDTTKYNEKFKGRFTISADKSKNTAYLQMNSLRAEDTAVYYCARSPSFDYWGQGTLVTVSS
VL: QIVLTQSPSSLSASVGDRVTITCSASSTIGFMYWYQQKPGKAPKRWIYDTSKLASGVPSRFSVSGSGTDYTLTISSLQPEDFATYYCHQRSSYPTFGQGTKVEIKR

Reference: patent publication US20240400690A1 (BIO THERA SOLUTIONS, published 2024)
